Experimental data published in patent US10858352B2, “Pharmaceutical compounds” (Heptares Therapeutics Limited, priority 2018, dated 2020).

Amino acid sequences for entries named in this document (tags omitted).
UniProt P20309, whole entry: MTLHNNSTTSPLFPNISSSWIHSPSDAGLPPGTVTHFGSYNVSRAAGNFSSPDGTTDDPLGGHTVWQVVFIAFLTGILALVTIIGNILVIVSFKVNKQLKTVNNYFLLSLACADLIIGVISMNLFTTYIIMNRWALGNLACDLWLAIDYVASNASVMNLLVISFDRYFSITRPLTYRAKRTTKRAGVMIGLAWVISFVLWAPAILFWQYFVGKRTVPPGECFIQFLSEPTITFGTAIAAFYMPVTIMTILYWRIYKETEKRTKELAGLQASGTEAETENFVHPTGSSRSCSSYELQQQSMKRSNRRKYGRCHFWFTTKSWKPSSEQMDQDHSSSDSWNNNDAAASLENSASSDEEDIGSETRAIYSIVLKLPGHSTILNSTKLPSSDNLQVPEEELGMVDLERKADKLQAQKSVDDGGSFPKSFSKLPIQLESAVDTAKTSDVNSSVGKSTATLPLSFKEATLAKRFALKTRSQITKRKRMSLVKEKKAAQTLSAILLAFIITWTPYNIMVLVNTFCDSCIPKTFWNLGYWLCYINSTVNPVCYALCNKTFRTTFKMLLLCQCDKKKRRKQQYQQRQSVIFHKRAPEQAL
UniProt P08173, whole entry: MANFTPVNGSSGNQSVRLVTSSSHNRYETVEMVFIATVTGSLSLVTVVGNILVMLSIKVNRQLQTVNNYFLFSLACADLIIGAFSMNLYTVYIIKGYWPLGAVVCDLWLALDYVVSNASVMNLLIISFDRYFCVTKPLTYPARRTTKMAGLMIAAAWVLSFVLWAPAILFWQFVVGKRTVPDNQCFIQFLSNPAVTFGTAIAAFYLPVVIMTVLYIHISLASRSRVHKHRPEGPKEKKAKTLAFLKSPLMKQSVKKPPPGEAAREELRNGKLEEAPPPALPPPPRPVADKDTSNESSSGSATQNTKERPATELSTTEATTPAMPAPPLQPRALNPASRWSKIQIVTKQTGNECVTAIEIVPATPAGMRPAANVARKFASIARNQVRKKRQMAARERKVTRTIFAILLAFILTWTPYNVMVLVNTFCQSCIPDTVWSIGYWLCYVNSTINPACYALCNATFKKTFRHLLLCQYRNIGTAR
UniProt P11229, whole entry: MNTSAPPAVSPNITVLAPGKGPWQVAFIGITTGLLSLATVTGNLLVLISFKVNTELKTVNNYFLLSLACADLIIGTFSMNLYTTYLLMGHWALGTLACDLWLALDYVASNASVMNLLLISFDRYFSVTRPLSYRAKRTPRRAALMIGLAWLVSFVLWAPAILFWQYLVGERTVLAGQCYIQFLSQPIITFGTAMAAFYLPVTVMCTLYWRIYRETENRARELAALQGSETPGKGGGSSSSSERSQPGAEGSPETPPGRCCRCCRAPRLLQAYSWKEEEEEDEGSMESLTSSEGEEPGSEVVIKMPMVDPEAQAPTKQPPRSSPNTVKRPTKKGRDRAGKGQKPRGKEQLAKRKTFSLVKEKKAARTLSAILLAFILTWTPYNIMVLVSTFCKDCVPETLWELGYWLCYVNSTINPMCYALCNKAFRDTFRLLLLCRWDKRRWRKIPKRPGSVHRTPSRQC
UniProt P08172, whole entry: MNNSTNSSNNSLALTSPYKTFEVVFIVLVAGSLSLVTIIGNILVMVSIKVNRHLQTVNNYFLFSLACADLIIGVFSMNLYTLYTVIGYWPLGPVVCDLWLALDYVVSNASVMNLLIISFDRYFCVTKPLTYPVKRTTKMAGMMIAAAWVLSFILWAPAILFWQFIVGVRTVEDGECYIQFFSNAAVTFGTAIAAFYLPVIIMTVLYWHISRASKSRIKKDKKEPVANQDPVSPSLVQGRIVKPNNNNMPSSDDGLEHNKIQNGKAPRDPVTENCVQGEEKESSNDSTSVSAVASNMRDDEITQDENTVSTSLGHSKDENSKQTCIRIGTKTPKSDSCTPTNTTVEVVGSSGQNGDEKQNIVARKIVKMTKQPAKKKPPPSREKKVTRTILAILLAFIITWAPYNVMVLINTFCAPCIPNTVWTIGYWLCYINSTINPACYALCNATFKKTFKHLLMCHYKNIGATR

Tests used:
[1] = molecular target: human muscarinic M3 receptor (Homo sapiens, UniProt P20309); assay: Alphascreen Surefire phospho-ERK1/2 functional assay, M3; type: cell-based; details: CHO cells stably expressing human M3; for % Emax cf. ACh (M3): Emax relative to ACh; for pEC50 M3: agonist 5 min, 37° C.
[2] = molecular target: human muscarinic M4 receptor (Homo sapiens, UniProt P08173); assay: Alphascreen Surefire phospho-ERK1/2 functional assay, M4; type: cell-based; details: CHO cells stably expressing human M4; for % Emax cf. ACh (M4): Emax relative to ACh; for pEC50 M4: agonist 5 min, 37° C.
[3] = molecular target: human muscarinic M1 receptor (Homo sapiens, UniProt P11229); assay: Alphascreen Surefire phospho-ERK1/2 functional assay, M1; details: CHO cells stably expressing human M1; for % Emax cf. ACh (M1): Emax relative to ACh; for pEC50 M1: agonist 5 min, 37° C.
[4] = molecular target: human muscarinic M2 receptor (Homo sapiens, UniProt P08172); assay: Alphascreen Surefire phospho-ERK1/2 functional assay, M2; type: cell-based; details: CHO cells stably expressing human M2; for % Emax cf. ACh (M2): Emax relative to ACh; for pEC50 M2: agonist 5 min, 37° C.

SMILES | % Emax cf. ACh (M3) [1] | pEC50 M3 [1] | % Emax cf. ACh (M4) [2] | pEC50 M4 [2] | % Emax cf. ACh (M1) [3] | pEC50 M1 [3] | % Emax cf. ACh (M2) [4] | pEC50 M2 [4]
CCN(C)C(=O)[C@H]1[C@@H]2CN(C3CCC4(C3)CN(c3nc(C)no3)C4)C[C@@H]21 (single isomer, unassigned) | (15) % | <4.70 | (21) % | <4.70 | (76) % | 6.92 | (14) % | <4.70
Cc1noc(N2CC3CCC2CC3N2CCC(C(=O)NC3(C)CCC3)CC2)n1 (single isomer, unassigned) | (6) % | <4.70 | (75) % | 5.33 | (113) % | 6.60 | (18) % | <4.70
Cc1noc(N2CC3CCC2CC3N2CCC(C(=O)NCC3(C)CCC3)CC2)n1 (single isomer, unassigned) [12-16 Isomer 1] | (13) % | <4.70 | (104) % | 7.41 | (108) % | 7.49 | (62) % | 6.36
Cc1noc(N2CC3CCC2CC3N2CCC(C(=O)NCC3(C)CCC3)CC2)n1 (single isomer, unassigned) [12-16 Isomer 2] | (4) % | <4.70 | (62) % | 6.25 | (118) % | 7.28 | (10) % | <4.70
